# According to patent publication US20220168440A1, “ANTIBODY-PYRROLOBENZODIAZEPINE DEPRIVATIVE CONJUGATE” (DAIICHI SANKYO COMPANY, LIMITED, priority 2019, published 2022):
# Legend:
# Assay type in all cases: in vivo, human
# [1] = test system: subcutaneously transplanted KPL-4 cells; experiment: Antitumor test (3), xenograft in female BALB/c nude mice; conditions: KPL-4 xenograft
# Experimental: (§1) Mouse: Four- to five-week-old female BALB/c nude mice (Charles River Laboratories Japan, Inc.) were habituated under SPF conditions for 4 to 7 days before being used for experiment. To the mice, sterilized pellets (FR-2, Funabashi Farms Co., Ltd.) were fed and sterilized tap water (prepared by adding 5 to 15 ppm sodium hypochlorite solution) was provided.
# (§2) Assay and calculation formula: In all of the studies, the major axis and minor axis of a tumor were measured twice or three times a week by using an electronic digital caliper (CD-15CX, Mitutoyo Corp.), and the tumor volume (mm^3) was calculated. The calculation formula is as shown below.
# (§3) Tumor volume (mm^3)=Major axis (mm)×[Minor axis (mm)]^2×½
# (§4) Each of the antibody-drug conjugates and antibodies was diluted with 10 mM acetate buffer, 5% sorbitol, pH 5.5 (NACALAI TESQUE, INC.; ABS buffer), and a liquid volume of 10 mL/kg was intravenously administered into the tail vein. As a control group (Vehicle group), ABS buffer was administered in the same manner.
# KPL-4 cells (Dr. Junichi Kurebayashi, Kawasaki Medical School, British Journal of Cancer, (1999) 79(5/6). 707-717) were suspended in Dulbecco's phosphate buffered saline (Sigma-Aldrich Co. LLC), and 1.5×10^7 cells were subcutaneously transplanted to the right flank of each female nude mouse (Day 0), and the mice were randomly grouped on Day 14. […]
# [2] = test system: subcutaneously transplanted JIMT-1 cells; experiment: Antitumor test (4), xenograft in female BALB/c nude mice; conditions: JIMT-1 xenograft
# Experimental: as §1, §2, §3, §4
# JIMT-1 cells (DSMZ ACC 589) were suspended in physiological saline (Otsuka Pharmaceutical Factory, Inc.), and 5×10^6 cells were subcutaneously transplanted to the right flank of each female nude mouse (Day 0), and the mice were randomly grouped on Day 10. […]
# [3] = test system: subcutaneously transplanted NCI-N87 cells; experiment: Antitumor test (2), xenograft in female BALB/c nude mice; conditions: 0.33 mg/kg i.v. tail vein on Day 4
# Experimental: as §1, §2, §3, §4
# NCI-N87 cells (ATCC CRL-5822) were suspended in Dulbecco's phosphate buffered saline (Sigma-Aldrich Co. LLC), and 1×10^7 cells were subcutaneously transplanted to the right flank of each female nude mouse (Day 0), and the mice were randomly grouped on Day 4. […]
Substance,weight loss of mice ([1]; 0.4 mg/kg i.v. on Day 14),antitumor effect (tumor volume) ([1]; 0.4 mg/kg i.v. tail vein on Day 14),weight loss of mice ([2]; 0.4 mg/kg i.v. on Day 10),antitumor effect (tumor volume) ([2]; 0.4 mg/kg i.v. tail vein on Day 10),antitumor effect (tumor volume) [3]
trastuzumab tesirine: trastuzumab conjugated with tesirine synthesized with reference to literature [reference compound],No weight loss,regression of tumor was not found,No weight loss,antitumor effect was found but regression of tumor was not found,
"trastuzumab: anti-HER2 antibody; light chain SEQ ID NO: 64, heavy chain SEQ ID NO: 65 [reference compound]",,,,,did not suppress tumor growth
